Results as given in patent publication US6756390B2, “Organic acid salt of amlodipine” (CJ Corp., priority 2002, dated 2004).

How the values were obtained:
Format in all cases: physicochemical
[1] = Solubility in various solvents at 37° C.
Description: The solubilities (mg/ml) of Table 8 are values based on the weight of amlodipine converted from the salts.

[2] = Chemical stability in solid state, accelerated test at 60° C.
[3] = Light stability, 4 weeks at 25° C. with exposure to daylight, HPLC
Description: A measurement was made of the contents of the salts with resort to HPLC under the same conditions as in the chemical stability test.

## Amlodipine Tetrahydro-5-oxo-2-furancarboxylic acid (Racemate) [TOF salt]
[1]
  Solubility: 520 mg/mL
[1]; pH 3
  Solubility: 400≦ mg/ml
[1]; pH 4
  Solubility: 400≦ mg/ml
[1]; pH 6
  Solubility: 400≦ mg/ml
[1]; pH 7
  Solubility: 400≦ mg/ml
[1]; pH 8
  Solubility: 400≦ mg/ml
[2]; 1 week
  Content, storage period 1 week: 99.7%
[2]; 2 weeks
  Content, storage period 2 weeks: 99.3%
[2]; 4 weeks
  Content, storage period 4 weeks: 99.1%
[2]; initial
  Content, storage period initial: 99.7%
[3]; 4 weeks, 25° C., daylight
  Color change on light exposure: no color change
  Content (HPLC), Stored 4 weeks, 25° C. daylight: 98.0%
[3]; initial
  Content (HPLC), Initial: 99.5%

Where two headings read alike, the source gives them in different places.
